From patent US9278960B2, “Quinoline carboxamide and quinoline carbonitrile derivatives as mGluR2-negative allosteric modulators, compositions, and their use” (Merck Sharp & Dohme Corp., priority 2011, dated 2016) come the findings set out here.

By UniProt entry, the sequences of proteins in these tests, tags left out. Residues count along the entry.
UniProt Q14416, 19-872: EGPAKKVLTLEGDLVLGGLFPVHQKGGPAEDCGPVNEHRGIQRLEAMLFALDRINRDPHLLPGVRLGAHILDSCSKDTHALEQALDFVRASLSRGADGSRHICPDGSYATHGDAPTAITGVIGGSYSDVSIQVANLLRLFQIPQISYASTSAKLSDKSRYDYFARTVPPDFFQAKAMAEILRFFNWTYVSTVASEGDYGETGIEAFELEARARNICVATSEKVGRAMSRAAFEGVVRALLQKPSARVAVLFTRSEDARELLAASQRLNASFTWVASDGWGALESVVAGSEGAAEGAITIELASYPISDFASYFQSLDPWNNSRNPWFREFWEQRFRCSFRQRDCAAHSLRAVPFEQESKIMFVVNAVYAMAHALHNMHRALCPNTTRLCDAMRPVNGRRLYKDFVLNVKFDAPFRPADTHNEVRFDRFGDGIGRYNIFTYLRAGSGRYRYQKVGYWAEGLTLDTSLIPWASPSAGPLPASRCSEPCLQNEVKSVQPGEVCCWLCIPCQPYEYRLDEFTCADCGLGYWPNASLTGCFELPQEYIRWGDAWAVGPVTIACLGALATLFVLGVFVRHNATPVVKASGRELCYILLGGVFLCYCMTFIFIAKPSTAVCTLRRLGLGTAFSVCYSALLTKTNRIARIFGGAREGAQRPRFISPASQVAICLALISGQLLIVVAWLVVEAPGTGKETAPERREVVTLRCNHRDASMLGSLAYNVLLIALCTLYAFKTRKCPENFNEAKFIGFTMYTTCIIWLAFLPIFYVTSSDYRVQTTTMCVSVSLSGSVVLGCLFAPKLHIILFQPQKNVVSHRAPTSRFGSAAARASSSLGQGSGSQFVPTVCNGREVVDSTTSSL

Structures are written as SMILES. Bounds are passed on as bounds.

For the assay, the target named is human mGluR2 (Homo sapiens (Human), UniProt Q14416). The assay is described as follows: FLIPR Ca2+ mobilization antagonist assay in CHO dhfr- cells expressing recombinant human mGluR2 and Gα16. Conditions: antagonist response after addition of 2,500 nM glutamate, Fluo-4 AM, FLIPR384. The format is cell-based.

For `NC(=O)c1cc(-c2ccc(F)cc2)c2ccc(Cn3cnc(Br)c3)cc2n1` [Example 3-25, 7-[(4-bromo-1H-imidazol-1-yl)methyl]-4-(4-fluorophenyl)quin-oline-2-carboxamide], the IC50 (commonly the concentration needed to halve the response being measured) was 43 nM.

On to `COc1ccc(-c2cc(C(N)=O)nc3cc(CCc4cncnc4N)ccc23)cc1` [Example 8-35, 7-[2-(4-aminopyrimidin-5-yl)ethyl]-4-(4-methoxyphenyl) quinoline-2-carboxamide], for which the IC50 turned out to be 7 nM.

For `Cn1cc(-c2cc(C(N)=O)nc3cc(CN4CCSC(C(F)(F)F)C4)ccc23)cn1` (stereo not shown) [Example 4-119, 4-(1-methyl-1H-pyrazol-4-yl)-7-{[2-(trifluoromethyl)thio-morpholin-4-yl]methyl}quinoline-2-carboxamide], the IC50 amounted to 18 nM.

Regarding `Cn1cc(-c2cc(C(N)=O)nc3cc(CN4CCOC(C)(C)C4)ccc23)cn1` [Example 4-56, 7-[(2,2-dimethylmorpholin-4-yl)methyl]-4-(1-methyl-1H-pyrazol-4-yl)quinoline-2-carboxamide], the IC50 was 88 nM.

Consider `CCC(O)(c1cn(Cc2ccc3c(-c4ccc(OC)cc4F)cc(C(N)=O)nc3c2F)cn1)C(F)(F)F` (stereo not shown) [Example 7-29, 8-fluoro-4-(2-fluoro-4-methoxyphenyl)-7-({4-[1-hydroxy-1-(trifluoromethyl)propyl]-1H-imidazol-1-yl}methyl)quinoline-2-carboxamide], for which the IC50 is 8 nM.

Turning to `NC(=O)c1cc(-c2ccc(F)cc2)c2ccc(C(O)Cc3ccc(Cl)nc3)cc2n1` (single isomer, unassigned) [Example 8-1, 7-[2-(6-Chloropyridin-3-yl)-1(R or S)-hydroxyethyl]-4-(4-fluorophenyl)quinoline-2-carboxamide], the concentration for half-maximal inhibition (IC50) stood at 10 nM.

Turning to `COc1ccc(-c2cc(C(N)=O)nc3cc(CN4C(=O)CCC4=O)ccc23)cc1` [Example 2-38, 7-[(2,5-dioxopyrrolidin-1-yl)methyl]-4-(4-methoxyphenyl)quinoline-2-carboxamide], the IC50 was determined as 27 nM.

In the case of `Cn1cc(-c2cc(C(N)=O)nc3cc(Cc4cccnc4C(F)(F)F)ccc23)cn1` [Example 6-22, 4-(1-methyl-1H-pyrazol-4-yl)-7-{[2-(trifluoromethyl)pyridin-3-yl]methyl} quinoline-2-carboxamide], the IC50 came to 42 nM.

As for `CN1C(=O)N(Cc2ccc3c(-c4ccc(F)cc4)cc(C(N)=O)nc3c2)C(=O)C1(C)C` [Example 2-15, 4-(4-fluorophenyl)-7-[(3,4,4-trimethyl-2,5-dioxoimidazolidin-1-yl)methyl]quinoline-2-carboxamide], the IC50 worked out at 64 nM.

For `CC[C@@](O)(c1cn(Cc2ccc3c(-c4ccc(F)nc4)cc(C(N)=O)nc3c2)nn1)C(F)(F)F` [Example 3-17, 4-(6-fluoropyridin-3-yl)-7-({4-[(1R)-1-hydroxy-1-(trifluoromethyl)propyl]-1H-1,2,3-triazol-1-yl}methyl)quinoline-2-carboxamide], the IC50 was found to be 74 nM.

Regarding `C[C@@H]1CN(Cc2ccc3c(-c4cnn(C)c4)cc(C(N)=O)nc3c2)CCO1` [Example 4-61, 7-{[(2R)-2-methylmorpholin-4-yl]methyl}-4-(1-methyl-1H-pyrazol-4-yl)quinoline-2-carboxamide], the IC50 was determined as 166 nM.

`NC(=O)c1cc(-c2ccc(F)cc2)c2cccc(F)c2n1` [Example 7-5, 8-Fluoro-4-(4-fluorophenyl)quinoline-2-carboxamide]: the IC50 came out at 338 nM.

Turning to `NC(=O)c1cc(-c2ccc(F)cc2)c2ccc(Cn3ccnc3Cl)cc2n1` [Example 3-32, 7-[(2-chloro-1H-imidazol-1-yl)methyl]-4-(4-fluorophenyl)quin-oline-2-carboxamide], the IC50 came out at 23 nM.

As to `Cc1ccc(-c2cc(C(N)=O)nc3ccccc23)c(F)c1` [Example 1-21, 4-(2-fluoro-4-methylphenyl)quinoline-2-carboxamide], the concentration for half-maximal inhibition (IC50) stood at 124 nM.

As to `C[C@H]1CN(Cc2ccc3c(-c4ccc(F)cc4)cc(C(N)=O)nc3c2)CCN1` [Example 4-104, 4-(4-fluorophenyl)-7-{[(3S)-3-methylpiperazin-1-yl]methyl}quinoline-2-carboxamide], the IC50 was determined as 120 nM.

On to `Cn1cc(-c2cc(C#N)nc3cc(Cc4ccnc(C(F)(F)F)c4)ccc23)cn1` [Example 6-4, 4-(1-methyl-1H-pyrazol-4-yl)-7-{[2-(trifluoromethyl)pyridin-4-yl]methyl} quinoline-2-carbonitrile], for which the IC50 is 145 nM.

Consider `COc1cc(Cc2ccc3c(-c4cnn(C)c4)cc(C(N)=O)nc3c2F)cc(C)n1` [Example 7-35, 8-fluoro-7-[(2-methoxy-6-methylpyridin-4-yl)methyl]-4-(1-methyl-1H-pyrazol-4-yl)quinoline-2-carboxamide], for which the IC50 was 14 nM.

In the case of `COc1ccc(-c2cc(C(N)=O)nc3cc(C(C)Cc4cnc(C)nc4)ccc23)c(F)c1` (single isomer, unassigned) [Example 8-10, 4-(2-Fluoro-4-methoxyphenyl)-7-[1-(2-methylpyrimidin-5-yl)propan-2(R or S)-yl]quinoline-2-carboxamide], the IC50 amounted to 7 nM.

With `NC(=O)c1cc(C2CCCCC2)c2ccc(CN3C(=O)CCC3=O)cc2n1` [Example 2-26, 4-cyclohexyl-7-[(2,5-dioxopyrrolidin-1-yl)methyl]quinoline-2-carboxamide], the IC50 came to 29 nM.

Regarding `C[C@@H]1COCCN1Cc1ccc2c(-c3cnn(C)c3)cc(C(N)=O)nc2c1` [Example 4-60, 7-{[(3R)-3-methylmorpholin-4-yl]methyl}-4-(1-methyl-1H-pyrazol-4-yl)quinoline-2-carboxamide], the IC50 was found to be 196 nM.

`NC(=O)c1cc(-c2ccc(F)cc2)c2ccc(C(=O)N3CCOCC3)cc2n1` [Example 5-6, 4-(4-fluorophenyl)-7-(morpholin-4-ylcarbonyl)quinoline-2-carboxamide]: the IC50 came to 987 nM.

Turning to `NC(=O)c1cc(-c2ccc(F)cc2)c2ccc(CN3CCCS3(=O)=O)cc2n1` [Example 2-34, 7-[(1,1-dioxidoisothiazolidin-2-yl)methyl]-4-(4-fluorophenyl)quinoline-2-carboxamide], the IC50 amounted to 105 nM.

Consider `NC(=O)c1cc(-c2ccc(F)cc2)c2ccc(CN3CC(O)CC3C(N)=O)cc2n1` (stereo not shown) [Example 4-36, 7-[(2-carbamoyl-4-hydroxypyrrolidin-1-yl)methyl]-4-(4-fluorophenyl)quino-line-2-carboxamide], for which the IC50 stood at 274 nM.

With `CCC(O)(c1cn(Cc2ccc3c(-c4ccc(OC)cc4)cc(C(N)=O)nc3c2)cn1)C(F)(F)F` (stereo not shown) [Example 3-51, 7-({4-[1-hydroxy-1-(trifluoromethyl)propyl]-1H-imidazol-1-yl}methyl)-4-(4-methoxyphenyl) quinoline-2-carboxamide], the IC50 was 10 nM.

In the case of `CC(C)CC1COCCN1Cc1ccc2c(-c3cnn(C)c3)cc(C(N)=O)nc2c1` (stereo not shown) [Example 4-64, 7-{[3-(2-methylpropyl)morph-olin-4-yl]methyl}-4-(1-methyl-1H-pyrazol-4-yl)quinoline-2-carboxamide], the IC50 came out at 73 nM.

As to `Cn1cc(-c2cc(C(N)=O)nc3cc(CN4CCC[C@@H](O)C4)ccc23)cn1` [Example 4-121, 7-{[(3R)-3-hydroxypiperidin-1-yl]methyl}-4-(1-methyl-1H-pyrazol-4-yl)quinoline-2-carboxamide], the IC50 is more than 1000 nM.

In the case of `COc1ccc(-c2cc(C(N)=O)nc3cc(CN4C(=O)CCC4=O)ccc23)c(F)c1` [Example 2-39, 7-[(2,5-dioxopyrrolidin-1-yl)methyl]-4-(2-fluoro-4-methoxyphenyl)quinoline-2-carboxamide], the IC50 turned out to be 8 nM.

With `NC(=O)c1cc(-c2ccc(F)cc2)c2ccc(CN3CCNC(CF)C3)cc2n1` (stereo not shown) [Example 4-111, 7-{[3-(fluoromethyl)piper-azin-1-yl]methyl}-4-(4-fluorophenyl)quino-line-2-carboxamide], the IC50 turned out to be 80 nM.

Turning to `NC(=O)c1cc(-c2ccc(Cl)cc2F)c2ccccc2n1` [Example 1-18, 4-(4-chloro-2-fluorophenyl)quinoline-2-carboxamide], the IC50 turned out to be 58 nM.

For the compound `NC(=O)c1cc(-c2ccc(F)cc2)c2ccc(Cn3cc(C(O)C4CCCC4)cn3)cc2n1` (stereo not shown) [Example 3-23, 7-({4-[cyclopentyl(hydroxy)methyl]-1H-pyrazol-1-yl}methyl)-4-(4-fluorophenyl)quin-oline-2-carboxamide], the IC50 worked out at 192 nM.

`COC(=O)c1cncn1Cc1ccc2c(-c3ccc(F)cc3)cc(C(N)=O)nc2c1` [Example 3-26, methyl 1-{[2-carbamoyl-4-(4-fluorophenyl)quin-olin-7-yl]methyl}-1H-imidazole-5-carboxylate]: the IC50 turned out to be 25 nM.

With `C[C@@H]1CN(Cc2ccc3c(-c4cnc(N)s4)cc(C(N)=O)nc3c2)C[C@H](C(F)(F)F)O1` [Example 4-128, 4-(2-amino-1,3-thiazol-5-yl)-7-{[(2R,6R)-2-methyl-6-(trifluoromethyl)morpholin-4-yl]methyl}quinoline-2-carboxamide], the IC50 came out at 142 nM.

Regarding `Cc1cscc1-c1cc(C(N)=O)nc2ccccc12` [Example 1-13, 4-(4-methylthiophen-3-yl)quinoline-2-carboxamide], the IC50 was found to be 641 nM.

For `NC(=O)c1cc(-c2cnn(CF)c2)c2ccc(CN3CCOC(C(F)(F)F)C3)cc2n1` (stereo not shown) [Example 4-80, 4-[1-(fluoromethyl)-1H-pyrazol-4-yl]-7-{[2-(trifluoromethyl)morpholin-4-yl]methyl}quinoline-2-carboxamide], the IC50 was found to be 15 nM.

As for `COc1ccc(-c2cc(C(N)=O)nc3cc(C(C)Cc4cccnc4)ccc23)c(F)c1` (stereo not shown) [Example 8-44, 4-(2-fluoro-4-methoxyphenyl)-7-(1-methyl-2-pyridin-3-ylethyl)quinoline-2-carboxamide], the IC50 came to 8 nM.

For the compound `NC(=O)c1cc(-c2ccc(F)cc2)c2ccc(CN3CCC(O)CC3)cc2n1` [Example 4-40, 4-(4-fluorophenyl)-7-[(4-hydroxypiperidin-1-yl)methyl]quinoline-2-carboxamide], the IC50 is 392 nM.

On to `Cn1cc(-c2cc(C(N)=O)nc3cc(Cc4ccnc(C(F)(F)F)c4)ccc23)cn1` [Example 6-21, 4-(1-methyl-1H-pyrazol-4-yl)-7-{[2-(trifluoromethyl)pyridin-4-yl]methyl} quinoline-2-carboxamide], for which the IC50 was found to be 6 nM.
